Among the data in PubChem BioAssay AID652082 (The Scripps Research Institute Molecular Screening Center, 2013) are inhibition values, retold here.

By UniProt entry, the sequences of proteins in these tests, tags left out. Where a name states a change or a piece, a line headed by the entry shows the natural chain unless it says otherwise.
UniProt P41145: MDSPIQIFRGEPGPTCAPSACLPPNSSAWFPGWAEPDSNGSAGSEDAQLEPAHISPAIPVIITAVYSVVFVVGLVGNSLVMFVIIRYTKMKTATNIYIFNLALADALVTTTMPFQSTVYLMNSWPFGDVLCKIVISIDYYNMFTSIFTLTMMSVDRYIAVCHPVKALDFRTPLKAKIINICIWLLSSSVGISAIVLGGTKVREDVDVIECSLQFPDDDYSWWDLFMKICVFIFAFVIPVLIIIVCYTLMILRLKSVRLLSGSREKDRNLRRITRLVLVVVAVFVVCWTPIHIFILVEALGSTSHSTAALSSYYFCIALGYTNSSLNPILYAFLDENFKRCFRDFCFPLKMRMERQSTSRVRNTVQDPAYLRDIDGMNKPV

The source made the active and inactive calls. No rule for the calls is given here.

The test deals with Kappa-type opioid receptor (Homo sapiens) (UniProt P41145). Description: kappa opioid receptor blockers, retest – cell-based, fluorescence, confirmation (AID 652082). Particulars: OPRK1 cell line, fluorescence antagonist read-out; at 9 µM; active compounds read high.

The term inhibition denotes the change of the read-out against control, counted positive when it falls. `Cc1csc2c(NC3CCN(Cc4ccccc4)CC3)ncnc12`: the inhibition is inactive: 43.3%.
